# Ab-95 light chain CDR variants: yeast mating affinities

Target: peptide PDVDLGDISGINAS, taken from heptad repeat 2 (HR2) of SARS-CoV-2 spike.

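The parent was found by panning a naive human phage display library on the peptide. The library (AAYL52) carries one to three amino acid substitutions per variant, with no insertions or deletions. AlphaSeq pools MATa yeast showing the antibodies with MATalpha yeast showing the peptide. After mating in shaken culture at 30 °C for 16 h, diploids were selected and their barcode pairs sequenced. A regression on co-assayed BCL2-family reference pairs converts the normalised counts of each replicate to an apparent Kd. The assay was run in three technical replicates.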

Parent scFv Ab-95: VH joined to VL by a (GGGGS)3 linker. Changes lie in the light chain CDRs alone.
VH: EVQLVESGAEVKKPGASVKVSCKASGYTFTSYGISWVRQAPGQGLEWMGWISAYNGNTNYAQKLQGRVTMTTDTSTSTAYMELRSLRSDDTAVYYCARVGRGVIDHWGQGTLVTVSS
VL: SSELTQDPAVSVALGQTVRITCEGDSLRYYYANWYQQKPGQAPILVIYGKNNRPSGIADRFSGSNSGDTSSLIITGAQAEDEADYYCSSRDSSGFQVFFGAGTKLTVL

Changes read parent residue, position, new residue, counted from the first residue of the VL shown. All variants listed here change F98 of the VL, counted from its first residue. Values are apparent Kd, the geometric mean of the replicates that gave a signal; lower means stronger binding. Where no diploid with the target was found in any replicate, the entry reads "no signal": below detection, most likely a poor binder, though not proof of it.

With S92K/F95L/F98A the result was no signal (0 of 3 replicates).
With G24N/L27P/F98L the result was no signal (0 of 3 replicates).
With G24P/S89P/F98I the result was no signal (0 of 3 replicates).
With D91F/Q96W/F98G the result was 3.8 µM (3 of 3 replicates).
With R28Q/N33M/F98T the result was 110 µM (2 of 3 replicates).
With D91T/F95V/F98K the result was 420 nM (2 of 3 replicates).
With D25E/N33T/F98L the result was 3.4 µM (1 of 3 replicates).
With G24V/S89K/F98W the result was 1.6 µM (3 of 3 replicates).
With D25F/S89I/F98V the result was 1.5 µM (2 of 3 replicates).
With P54D/F95E/F98M the result was 98 nM (3 of 3 replicates).
With N51E/R90P/F98V the result was 2.0 µM (1 of 3 replicates).
With E23Y/Y30M/F98I the result was 240 nM (3 of 3 replicates).
With D91V/S93T/F98Q the result was 1.6 µM (3 of 3 replicates).
With R90C/S93V/F98S the result was 29 µM (1 of 3 replicates).
With R53Q/F95L/F98W the result was no signal (0 of 3 replicates).
With R53C/F98I the result was 5.3 µM (2 of 3 replicates).
With D25L/F98P the result was 1.2 µM (2 of 3 replicates).
With D25N/N33Q/F98E the result was 110 µM (1 of 3 replicates).
With S93M/G94R/F98H the result was 370 nM (3 of 3 replicates).
With Y31T/G94C/F98L the result was 260 nM (3 of 3 replicates).
With N51G/S89F/F98T the result was 180 nM (3 of 3 replicates).
With F98N the result was 210 nM (3 of 3 replicates).
With E23C/N51F/F98Y the result was 380 µM (1 of 3 replicates).
With S88C/V97T/F98E the result was 5.1 µM (2 of 3 replicates).
With Y29D/Q96F/F98S the result was 510 nM (3 of 3 replicates).
With R28L/K50C/F98A the result was 1.7 µM (1 of 3 replicates).
With S26Q/G49E/F98I the result was 7.0 µM (1 of 3 replicates).
With K50C/N51S/F98S the result was 1.9 µM (1 of 3 replicates).
With E23R/D91C/F98Q the result was 10 µM (2 of 3 replicates).
With G49D/S92L/F98D the result was 3.8 µM (3 of 3 replicates).
With R53Y/R90S/F98K the result was 150 µM (1 of 3 replicates).
With E23K/F98W the result was 46 nM (3 of 3 replicates).
With F95N/Q96F/F98M the result was 2.2 µM (1 of 3 replicates).
With G94K/F98M the result was 24 µM (2 of 3 replicates).
With N33K/Q96C/F98P the result was no signal (0 of 3 replicates).
With Y30A/Q96Y/F98E the result was 25 nM (3 of 3 replicates).
With L27H/F98V the result was 420 nM (1 of 3 replicates).
With Y29H/S89H/F98S the result was 1.0 µM (1 of 3 replicates).
With P54W/G94N/F98A the result was 4.6 µM (2 of 3 replicates).
With P54Y/S92A/F98M the result was 2.2 µM (3 of 3 replicates).
With N33W/N52Y/F98G the result was 100 µM (3 of 3 replicates).
With Y29K/K50Y/F98D the result was 2.0 µM (3 of 3 replicates).
With P54D/S92K/F98T the result was 5.8 µM (3 of 3 replicates).
With Y31P/N51D/F98H the result was 45 nM (3 of 3 replicates).
With S26R/G94P/F98K the result was no signal (0 of 3 replicates).
With S89F/V97N/F98W the result was 130 nM (3 of 3 replicates).
With G24I/N52A/F98P the result was 94 nM (3 of 3 replicates).
With R53G/S88I/F98G the result was 5.1 µM (2 of 3 replicates).
With N52L/F98Y the result was 98 nM (3 of 3 replicates).

For reference, 5 entries of the list once more:

changes	apparent Kd	detected
G24V/S89K/F98W	1.6 µM	3 of 3
S93M/G94R/F98H	370 nM	3 of 3
S26Q/G49E/F98I	7.0 µM	1 of 3
D91T/F95V/F98K	420 nM	2 of 3
G24N/L27P/F98L	no signal	0 of 3

As a blank, each scFv also met three strains without target: over library AAYL52, 28% of these pairings were detected, typically at 8.2 µM and seldom below 800 nM. Parent in this assay: reference entry 200 nM, copy in this library 180 nM.

Values reported by Engelhart et al. 2022, doi:10.1038/s41597-022-01779-4 (FLAb copy).